What was measured:
[1] = tested on: Substance-P receptor (Oryctolagus cuniculus); experiment: Binding constant towards tachykinin receptor 1 using ASMSP as agonist on rabbit pulmonary artery tissues.
Canis lupus familiaris = experiment: Plasma clearance in dog at a dose of 1 uM/kg was determined; conditions: read-out: Clp

Row | pKB [1] | clearance (Canis lupus familiaris) [mL/min/kg] | Structure (SMILES)
1 | 8.98 | – | CN(C[C@@H](CCN1CCC(c2ccccc2[S@+](C)[O-])CC1)c1ccc(Cl)c(Cl)c1)C(=O)c1cc(C#N)cc2ccccc12 (stereo in doubt) [listing 1 of 2 here]
2 | – | 9.5 | CN(C[C@@H](CCN1CCC(c2ccccc2[S@+](C)[O-])CC1)c1ccc(Cl)c(Cl)c1)C(=O)c1cc(C#N)cc2ccccc12 (stereo in doubt) [listing 2 of 2 here]

Further lines, the molecule ahead of its results:

Row | Structure (SMILES) | pKB [1] | clearance (Canis lupus familiaris) [mL/min/kg]
3 | CC(=O)NC1(c2ccccc2)CCN(CC[C@H](CN(C)C(=O)c2ccccc2)c2ccc(Cl)c(Cl)c2)CC1 | 5.4 | –
4 | COc1cc(C(=O)N2CC[C@](CCN3CCC(C(N)=O)(c4ccccc4)CC3)(c3ccc(Cl)c(Cl)c3)C2)cc(OC)c1OC | 7.4 | –
5 | CN(C[C@@H](CCN1CCC(c2ccccc2[S@+](C)[O-])CC1)c1ccc(Cl)c(Cl)c1)C(=O)c1cc(C#N)cc2ccccc12 (stereo in doubt; 4b) | 8.36 | –
